Assay results: patent US20100311696A1, “TOPICAL SKIN TREATMENT COMPOSITION” (priority 2002, published 2010)

Conditions: PPC-enriched phosphatidylcholine/polyglycol carrier of Example 1

## recombinant human insulin
  solubility in the carrier: readily soluble
